Test results: article PMC3188669 (Journal of medicinal chemistry, 2011)

Test system: Colon26 tumors
Conditions: mouse, in vivo, iv

Substance: ^18F-fluoro-2-deoxyglucose [^18F-FDG]
- organ distribution (biodistribution): higher uptake in muscle and heart relative to tumor
